Experimental data from ChEMBL document CHEMBL5108071, “Potent and Specific Activators for Mitochondrial Sirtuins Sirt3 and Sirt5” (J Med Chem, 2022).

Experiments:
[1] = target: NAD-dependent protein deacylase sirtuin-5, mitochondrial (Homo sapiens) (UniProt Q9NXA8); assay: Activation of SIRT5 in human MDA-MB-231 cells assessed as reduction in GDH level at 50 uM incubated for 4 to 24 hrs; conditions: filed as activator, time 4-24 hrs
[2] = target: NAD-dependent protein deacylase sirtuin-5, mitochondrial (Homo sapiens) (UniProt Q9NXA8); assay: Activation of SIRT5 in human MDA-MB-231 cells assessed as blockade of ammonia accumulation at 50 uM incubated for 4 to 24 hrs; conditions: filed as activator, time 4-24 hrs
[3] = target: NAD-dependent protein deacylase sirtuin-5, mitochondrial (Homo sapiens) (UniProt Q9NXA8); assay: Activation of SIRT5 in human S2-013 cells assessed as decrease in GOT1 acetylation at 20 uM incubated for 24 hrs by Western blot analysis; conditions: filed as activator
[4] = target: NAD-dependent protein deacylase sirtuin-5, mitochondrial (Homo sapiens) (UniProt Q9NXA8); assay: Activation of SIRT5 in human CAPAN-1 cells assessed as decrease in GOT1 acetylation at 20 uM incubated for 24 hrs by Western blot analysis; conditions: filed as activator

Measured: Activity

CCOC(=O)C1=CN(C(=O)c2ccccc2)C=C(C(=O)OCC)C1c1cccc(OC)c1
active: all assays above

Calls of active or inactive are those of the source.
